The subject of this assay is cultured HFSCs. In words: Directed differentiation of cultured HFSCs to HS and IRS lineages (Cux1 reporters, GATA3, HOXC13). The assay is classed as cell-based, mouse.

B1: BMP2: bone morphogenetic protein (protein, UniProt P12643 283-396, looked up)
Bone morphogenetic protein 2: QAKHKQRKRLKSSCKRHPLYVDFSDVGWNDWIVAPPGYHAFYCHGECPFPLADHLNSTNHAIVQTLVNSVNSKIPKACCVPTELSAISMLYLDENEKVVLKNYQDMVVEGCGCR
As for B1, the lineages formed result (R-spondins, BMP2 and BMP4 together) was “directed HFSCs to form the hair shaft and inner root sheath lineages”. Moreover, the “Cux1 (IRS) and Cux1 (HS) reporter activity” value (alongside Rspo) is on record as “most effective in upregulating reporter activity”.

Values taken from patent US20250110116A1, “COMPOSITIONS AND METHODS FOR PRODUCING HAIR FOLLICLE STEM CELLS” (The Rockefeller University, priority 2023, published 2025).
